Test system: HIV-1
Settings: 10, 30, 60, 100, 200 μg/ml

With CCc1ccc2c3[nH]c4ccccc4c3cc[n+]2c1 [flavopereirine] as the compound, how does the “inhibition of infection of target PBMC” value read?
Its value is “found to inhibit infection of target PBMC by the virus in a manner dependent on the dose”.
